Experimental findings from patent EP0663912B1, “HETEROCYCLIC ETHER COMPOUNDS THAT ENHANCE COGNITIVE FUNCTION” (ABBOTT LABORATORIES, priority 1992, dated 1994) are described below.

For the test, the system named is cholinergic channel receptors in PC12 cells. Nature of the test: Whole-cell patch-clamp measurement of cholinergic channel activation in NGF-differentiated PC12 cells. It is filed as cell-based, rat. The settings on record: 50 µM (-)-nicotine, individual PC12 cells A-E, holding potential -60 mV. An excerpt:
B. Protocols for the Determination of Cholinergic Channel Activation in PC12 Cells.
The cholinergic channel activator properties of Example 9 were investigated in PC12 cells using the whole-cell patch-clamp approach to measure current flow through ligand-gated membrane channels. […]
PC12 cells are a rat pheochromocytoma cell line that, upon treatment with nerve growth factor (NGF) differentiate into a neuronal phenotype and express nicotinic cholinergic channels (Greene & Tischier, Proceedings of the National Academy of Sciences of the United States of America, 73: 2424-2428, 1976; Dichter et al., Nature, 268: 501-504, 1977). Prominent neuronal cholinergic channel subunits in these cells are α3, α5, β2, β3 and β4 (Rogers et al., Journal of Neuroscience, 12: 4611-4623, 1992). […]
The whole-cell patch-clamp technique was used to record voltage-activated currents and ligand-gated currents activated by substances applied through the U-tube flow-reversal technique (Fenwick et al., The Journal of Physiology (London) 331: 577-597, 1982). […] Voltage-gated inward (sodium) and outward (potassium) currents were monitored throughout the experiment to determine establishment and maintenance of the whole-cell recording configuration. […]
(In general: In patch-clamp work, channel activity is measured electrically.)

Regarding `CN1CCCC1c1cccnc1` (single isomer, unassigned; (-)) [(-)-nicotine, reference compound], the “CURRENT AT PEAK” value came to 283 pA.
